Marks after values point to notes of the source that are not given here.
Columns and labels:
[1] = In vitro plasma and serum stability, human; assay type: in vitro ADME; conditions: for T½, SERUM HUMAN / T½, PLASMA, HEPARIN HUMAN: 37° C., 0.1 mg/ml
Protocol: (§1) The stability of peptides is analysed in serum and plasma. The peptides are incubated at 37° C. in plasma or serum and samples taken at approx. 9 regular intervals between t=0 and t=156 min are analysed by HPLC.
(§2) This is done by subsequent injections of the drug, plasma, and a co-injection with the drug and the plasma, followed by optimisation of the LC method parameters until a satisfactory separation is obtained. Three parallel experiments are performed for each plasma type. 100 ml of peptide is mixed with 900 ml plasma at t=0 and incubated at 37° C. (drug-plasma mixture conc. 0.1 mg/ml). Samples of 100 ml of the drug-plasma mixture are removed at appropriate intervals and the degradation stopped by precipitation of the sample with 10 ml MeCN:TFA 50:50 v/v. A control plasma sample without the drug treated in the same manner is also taken. The plasma samples are centrifuged for 15 min. at 12,000 rpm (Eppendorf centrifuge) at ambient temperature. The resulting supernatant solution is transferred to 300 ml HP autosamler vials and analyzed by HPLC. The samples are analyzed in the following order: blank, the peptide at 0.1 mg/mL, the plasma without the peptide, the three parallel samples for t=0, the three parallel samples for t=5 min. the three parallel samples for t=10 min. etc. And finally the three parallel samples for t=0 are repeated to make sure that there have been no degradation or other failure during the analyses. The sample concentrations (peak height in mAU) are plotted vs. time and fitted to a function describing a mono exponential decay (Excel).

[2] = In vitro plasma and serum stability, rabbit; assay type: in vitro ADME; conditions: 37° C., 0.1 mg/ml
Protocol: as §1, §2

[3] = In vitro plasma stability, rat; assay type: in vitro ADME; conditions: 37° C., 0.1 mg/ml
Protocol: as §1
as §2, with “And finally the three parallel samples for t=0 are repeated to make sure that there have been no degradation or other failure during the analyses. The sample concentrations (peak height in mAU) are plotted vs. time and fitted to a function describing a mono exponential decay (Excel).” left out

[4] = In vitro plasma stability under sterile conditions, rat plasma; assay type: in vitro ADME; conditions: heparin, 90%, 0.2 mM
[5] = In vitro plasma stability under sterile conditions, human plasma; assay type: in vitro ADME; conditions: heparin, 90%, 0.2 mM
GJIC in Cardiomyocytes = test: Intercellular conductance (Gj) in isolated cardiomyocyte pairs, double patch clamp; assay type: cell-based, guinea pig; conditions: 10^−8 M; steady-state after about 400 seconds of stimulation
[6] = tested on: excisional wounds on the back skin; test: Excisional wound healing in mice (planned); assay type: in vivo; conditions: 5 days treatment
Protocol: To examine wound healing in vivo, Compound 2 and Compound 40 is administered topically (concentration range 10-9- 10-6 mol/l in aqueous gel) and parenterally (10-10-10-6 mol/kg) two to four times daily to mice. Two round excisional wounds are created down the panniculus carnosus with a 6-mm punch biopsy on the back skin of each mouse. After 5 days treatment with compound 2 and compound 40 the effect of skin is evaluated histologically by microscopy of biopsies and wound healing is measured by daily measurements of the diameter of the wound.

H-Gly-Asn-Tyr-NH2 [Compound 41]
Human plasma half life [1]: 63 min

[Pro^4]AAP10-NH2 [reference compound]
Human plasma half life [1]: 5 min

3-(4-hydroxyphenyl)propionyl-Pro-Hyp-Gly-Ala-Gly-OH [HP5, reference compound]
T½, PLASMA, HEPARIN RABBIT [2]: 3.7 min ± 1%

Cyclo(Tyr-Pro-4Hyp-Gly-Ala-Gly-Asn) [Compound 3]
T½, PLASMA, HEPARIN RABBIT [2]: >5 h | Human plasma half life [1]: >300 min | stability in plasma and serum compared with AAP10 [1]: considerably more stable | T½, SERUM HUMAN [1]: >5 h

CF3C(O)-AAP10-NH2
T½, PLASMA, HEPARIN RABBIT [2]: 3.8 hrs ± 0.5% | Human plasma half life [1]: 240 min | T½, SERUM HUMAN [1]: 3.1 hrs ± 10%

H-Gly-Ala-Gly-Hyp-Pro-Tyr-NH2 [AAP10, reference compound]
T½, PLASMA, HEPARIN RAT [3]: 8.2 min ± 13% | T½, PLASMA, HEPARIN RABBIT [2]: 9.5 min ± 12% | T½, SERUM RABBIT [2]: 2.7 min ± 4% | Human plasma half life [1]: 13 min | half life in plasma and serum [1]: less than 10 minutes | Plasma stability, half-life ([4]; incubation 20 min): 0.00264 days | Plasma stability, half-life ([5]; incubation 20 min): 0.00125 days

Ac-D-Tyr-D-Pro-D-4Hyp-Gly-D-Ala-Gly-NH2 [Compound 2]
ΔGj (relative change of intercellular conductance) (GJIC in Cardiomyocytes): +120±46% | T½, PLASMA, HEPARIN RABBIT [2]: >5 h | Human plasma half life [1]: >300 min | stability in plasma and serum compared with AAP10 [1]: considerably more stable | T½, PLASMA, HEPARIN HUMAN [1]: >5 h | T½, SERUM HUMAN [1]: >5 h | Plasma stability, half-life ([4]; incub. 7 days): 10.3 days | Plasma stability, half-life ([5]; incub. 7 days): 14.1 days | skin structure, histology [6]: will not affect skin structure alone

H-Gly-Ala-Gly-Hyp-Pro-Tyr-Lys-Lys-Lys-Lys-Lys-Lys-OH [Compound 48]
stability in plasma and serum compared with AAP10 [1]: considerably more stable | Human plasma half life, min. ([1]; measured in EDTA plasma): 87* min

H-DY-DN-G-NH2
Human plasma half life [1]: 296 min | T½, PLASMA, HEPARIN HUMAN [1]: 296 min ± 34%

H-Gly-Ala-Gly-Asn-Tyr-NH2 [Compound 39]
Human plasma half life [1]: 7 min

3(4-hydroxyphenyl)propionyl-Pro-Hyp-Gly-Ala-Gly-Lys-Lys-Lys-Lys-Lys-Lys-OH [Compound 49]
Human plasma half life [1]: 2 min | stability in plasma and serum compared with AAP10 [1]: considerably more stable

Ac-Gly-Asn-Tyr-NH2 [Compound 40]
Human plasma half life [1]: 2140 min | skin structure, histology [6]: will not affect skin structure alone

H-Gly-Pro-Hyp-Gly-Ala-Gly-OH [AAP, reference compound]
T½, PLASMA, HEPARIN RABBIT [2]: 4.4 min ± 12% | Human plasma half life [1]: 8 min | T½, PLASMA, HEPARIN HUMAN [1]: 7.6 min ± 6%

3(4-hydroxyphenyl)propionyl-Pro-Hyp-Gly-Ala-Gly-Lys-Lys-Lys-Lys-Lys-Lys-NH2 [Compound 51]
Human plasma half life [1]: >300 min

Source: patent US7585839B2, “Medical uses of intercellular communication facilitating compounds” (Zealand Pharma A/S, priority 2001, dated 2009)
